According to patent publication US9976170B2, “Method for evaluating bacterial cell wall integrity” (UNIVERSIDAD AUTONOMA DE MADRID, priority 2011, dated 2018):

Tested on: amoxicilin/clavulanic acid-sensitive E. coli strain

Substance amoxicilin/clavulanic acid has a viable cells (32/16, 15 minutes of incubation) of 5.62%, a viable cells (32/16, 2 hours of incubation) of 3.77% and a viable cells (32/16, 6 hours) of 0.13%. For the same substance, the viable cells (32/16, at both 3 and 4 hours) was 0.38%.

Read-outs that look alike come from different tables or passages of the source.
